This note sets out measurements from PubChem BioAssay AID485298 (National Center for Advancing Translational Sciences (NCATS), 2010).

The entries are a selection whose mix differs from that of the whole data set. Calls of active or inactive are those of the source. The call rests on the fitted dose curve; in most records, active means well fitted activation curve with a large enough effect; inconclusive means small, poorly fitted or top-dose-only effect; inactive means no such curve, though single readings can be large or run the other way.
Potency means the concentration at half of the fitted maximal effect.

A short description of the assay: qHTS Assay for Small Molecule Inhibitors of Mitochondrial Division or Activators of Mitochondrial Fusion. Further: nearly all actives have a fitted effect of over 45% in size. On growth rescue (activation): % of control where 0% means no effect. As to conditions: S. cerevisiae fusion-defective mutant growth rescue, CellTiterGlo 48 h; series mostly up to 46.1 µM; growth rescue (activation): at the top concentration. From the text:
NIH Chemical Genomics Center [NCGC] NIH Molecular Libraries Probe Production centers Network [MLPCN] MLPCN Grant: MH081279-01 Assay Submitter (PI): Jodi M. Nunnari NCGC Assay Overview: The budding yeast S. cerevisiae is a powerful system to study mitochondrial fusion. Unlike other organisms, yeast cells without functional mitochondrial DNA (mtDNA) can be propagated and studied as long as they maintain a mitochondrial compartment and are provided with a fermentable carbon source. When mitochondrial fusion is blocked in yeast, mitochondrial tubules rapidly fragment and division continues unopposed. Under conditions where fusion is compromised in mammalian cells, nearly identical changes in mitochondrial structure have been observed. Thus, these findings indicate that steady state mitochondrial structure in cells is a characteristic and specific indicator of fusion activity. Mounting evidence has pointed to a connection between mitochondrial dynamics and apoptosis in mammalian cells. These studies indicate that in mammalian cells mitochondrial dynamics are more integrated into cellular processes than in yeast cells and have evolved not only to distribute the organelle but also to aid in the regulation of cellular homeostasis. Mitochondrial fusion proteins attenuate apoptosis by inhibiting the release of cytochrome c from mitochondria, in part by controlling cristae structures. Thus, small molecules that inhibit mitochondrial […] may promote apoptosis and potentially act as novel chemotherapeutics and stimulation of apoptosis has become an attractive target of anti-cancer therapies. To identify inhibitors of mitochondrial division, we exploit the growth phenotypes of mitochondrial fusion-defective mutants. The temperature sensitive fusion alleles, such as fzo1-1 and mgm1-5, cause mitochondrial membranes to fragment in cells under non-permissive conditions and cells lose mtDNA, and are unable to grow in the presence of non-fermentable carbon source glycerol. Inhibiting mitochondrial division rescues growth. We have developed and optimized a luminescence cell viability assay in 1536 well format for the identification of inhibitors in the yeast mitochondrial fusion-defective assay.
The yeast glycerol stocks where kindly supplied by the laboratory of Dr. Jodi Nunnari, University of California, Davis. All yeast glycerol stock solutions were stored in single use aliquots at -80C. The CellTiterGlo luminescence reagent, containing luciferase and luciferin, were purchased from Promega, and the reagents were stored according to manufacturer's instructions. The Buffer components for the YPEG yeast growth medium were purchased from Sigma-Aldrich (St. Louis, MO). YPEG growth medium: 1% (w/v) yeast extract, 2% (w/v) Bacto-peptone, 3% Ethanol, 3% glycerol, 0.4mM Tryptophan, 0.36mM Adenine. qHTS Assay Protocol: 1.#Dispense 2.5 ul yeast growth medium per 1536 well plate. 2.#Transfer 23 nl per well of compound to plate. 3.#Dispense 2.5 ul yeast solution at appropriate seeding density per well. 4.#Incubate for 48 hours at 37C. 5.#Dispense 5 ul of CellTiterGlow solution per well. 6.#Incubate at ambient for 10 minutes. 7.#Read using bio-luminescence protocol on Viewlux.
Regarding `NS(=O)(=O)c1cccc(NC(=O)COC(=O)C(O)(c2ccccc2)c2ccccc2)c1`, the “growth rescue (activation)” value was inactive: -2.73%. Regarding `O=P1(Nc2ccc(Br)cn2)COc2ccccc2OC1`, the “growth rescue (activation)” value is inactive: 0.349%. `O=[As](O)(c1cccs1)c1cccs1`: the “growth rescue (activation)” value is inactive: -7.51%. As to `Cc1ccc(OCC(=O)OC2CN3CCC2CC3)cc1` (centres undefined), the “growth rescue (activation)” value was inactive: 6.8%. The same measure, in the same setting: for `Nc1cccc([As](=O)(O)c2ccccc2)c1` the value was inactive: -4.15%; for `O=P1(Nc2ncccn2)COc2ccccc2OC1`, inactive: -2.22%; for `O=C(/C=C/c1ccccc1)OC1CN2CCC1CC2` (centres undefined), inactive: 7.31%.

Take `CN(C)C1(CNC(=O)c2ccc(S(C)(=O)=O)cc2)CCCCC1`: the “growth rescue (activation)” value is inactive: 0.685%. Same read-out and setting: for `Cc1nn(-c2ccccc2)c2c1P(=O)(N1CCOCC1)N(C)C(c1ccccc1)=N2` (centres undefined) the value was inactive: 5.81%; for `Cc1ccc(C(=O)OC2CN3CCC2CC3)cc1` (centres undefined), inactive: -15.1%; for `CC1CCC(C(C)C)C(OP(=O)(Nc2ccccn2)c2ccccc2)C1` (centres undefined), inactive: 1.82%. For `O=[As](O)(c1ccccc1Br)c1ccccc1Br`, the “growth rescue (activation)” value is inactive: 1.93%.

As for `CN(C(=O)Cc1ccc(Cl)c(Cl)c1)[C@@H]1CCCC[C@H]1N1CCCC1`, the “growth rescue (activation)” value was inactive: 3.98%. `CC(C)/C=N\N=C(\N)N[N+](=O)[O-]`: the “growth rescue (activation)” value was inactive: 2.54%. Same read-out and setting: for `COc1ccccc1CNC(=O)COC(=O)C(O)(c1ccccc1)c1ccccc1` the value was inactive: 3.96%; for `Clc1n[nH]nc1-c1nn[nH][15n]1`, inactive: 2.71%. As to `CC(C)(C)C(=O)NC(Sc1ncccn1)C(Cl)(Cl)Cl` (centres undefined), the “growth rescue (activation)” value was inactive: 3.45%. On the same count and under the same terms, for `CN(CCCl)Cc1cc(Cl)c(NC2=NCCN2)c(Cl)c1` the value was inactive: 11.7%; for `CCOP(=O)(Nc1ccc(C)cn1)OCC`, inactive: 20.4%. Same read-out and setting: for `CCC1=CC2Cc3nc4ccc(Cl)cc4c(N)c3C(C1)C2` (centres undefined) the value was inactive: -5.56%. Still for that read-out and setting: for `O=P1(Nc2ccccn2)COc2ccccc2OC1` the value was inactive: -2.39%; for `CCOP(=O)(NC(=NC(C)c1ccccc1)NC(C)c1ccccc1)OCC` (centres undefined), inactive: -12%. For `COc1cc(C2NCCC3(OCCO3)C2(C)C)cc(OC)c1OC` (centres undefined), the “growth rescue (activation)” value was inactive: -4.38%. Still for that read-out and setting: for `CCOP(=O)(Nc1cccc2ccccc12)OCC` the value was inactive: -9.1%; for `CCCOP(=S)(Nc1nc(N)cc(=O)[nH]1)OCCC`, inactive: -7.32%; for `Nc1cccc2c([As](=O)(O)O)cccc12`, inactive: -18.2%. Still for that read-out and setting: as for `Cc1ccc(NCCc2c([N+](=O)[O-])cc([N+](=O)[O-])cc2[N+](=O)[O-])cc1`, the figure is inactive: 4.03%; as for `O=[As](O)(c1cccc(O)c1)c1cccc(O)c1`, inactive: -4.27%; as for `Cc1cccc(OCC(=O)OC2CN3CCC2CC3)c1` (centres undefined), inactive: 2.25%. Still for that read-out and setting: for `COc1cc(C(=O)NCC2(N3CCOCC3)CCCCC2)cc(Cl)c1OC(C)C` the value was inactive: -9.05%; for `O=[As](O)(O)c1cccnc1`, inactive: -6.6%. Take `CS(=O)(=O)c1ccc(Cl)c(NC(=O)COC(=O)C(O)(c2ccccc2)c2ccccc2)c1`: the “growth rescue (activation)” value was inactive: 2.2%.

Consider `O=C(OC1CN2CCC1CC2)c1ccc(Cl)cc1` (centres undefined), for which the “growth rescue (activation)” value is inactive: -2.6%.

Take `CN(C(=O)Cc1ccc(Cl)c(Cl)c1)[C@@H]1CC[C@]2(CCCO2)C[C@H]1N1CCCC1`: the “growth rescue (activation)” value was inactive: -9.73%. On the same count and under the same terms, for `O=[N+]([O-])c1ccc2c(c1)nnn2O` the value was inactive: 2.92%. Same read-out and setting: as for `N#CCCN(C(=O)COC(=O)C(O)(c1ccccc1)c1ccccc1)c1ccc(F)cc1`, the figure is inactive: -0.191%; as for `CCOP1(=S)c2c(C)nn(CCC#N)c2N=C(c2ccc(F)cc2)N1C` (centres undefined), inactive: -0.303%.

As for `CN(C(=O)Cc1ccccc1)[C@@H]1CC[C@]2(CCCO2)C[C@H]1N1CCCC1`, the Potency entry is “inactive”. In the case of `NC(=O)Nc1ccc([As](=O)(O)O)cc1`, the “growth rescue (activation)” value is inactive: -2.77%. The same measure, in the same setting: for `O=C(O)COc1ccc([As](=O)(O)O)cc1[N+](=O)[O-]` the value was inactive: 4.53%; for `Nc1ccccc1[As](=O)(O)c1ccccc1`, inactive: -3.85%; for `CS(=O)(=O)c1cc([N+](=O)[O-])c2no[n+]([O-])c2c1`, inactive: 3.52%. On the same count and under the same terms, for `CCOP1(=S)c2c(C)nn(CCC#N)c2N=C(c2ccccc2F)N1C` (centres undefined) the value was inactive: 24.7%; for `O=P(Nc1nccs1)(c1ccccc1)c1nc2ccccc2s1` (centres undefined), inactive: -3.25%; for `O=P(Nc1nccs1)(Oc1ccccc1)Oc1ccccc1`, inactive: 22.5%. As for `CCN(CC)C(=S)SC(NC=O)C(Cl)(Cl)Cl` (centres undefined), the “growth rescue (activation)” value is inactive: 0.441%. Same read-out and setting: as for `CC(C)NC(=O)NP(=O)(Oc1ccccc1)Oc1ccccc1`, the figure is inactive: -2.61%. Consider `O=[N+]([O-])c1cc([N+](=O)[O-])c(-c2ccn[nH]2)s1`, for which the Potency was active: 11.2 µM.

For `CC(C)c1ccc(OP(=O)(Nc2ccccn2)Oc2ccccc2F)cc1` (centres undefined), the “growth rescue (activation)” value was inactive: 6.83%. The same measure, in the same setting: for `ClCCSc1nnc(-c2cccnc2)o1` the value was inactive: -1.37%. In the case of `Cc1ccc2nc3c(c(C)c2c1)CC(C(Cl)Cl)S3` (centres undefined), the “growth rescue (activation)” value is inactive: 5.97%.

As to `Cc1ccc(OP(=O)(Nc2ccc([N+](=O)[O-])cn2)Oc2ccc(C)cc2)cc1`, the “growth rescue (activation)” value was inactive: 13.9%. Consider `C[As](=O)(O)c1cccc(C(=O)O)c1`, for which the “growth rescue (activation)” value is inactive: 1.26%. For the molecule `O=[As](O)(c1ccc(O)cc1)c1ccccc1O`, the “growth rescue (activation)” value is inactive: 11.5%. As to `COc1cc(C(=O)NCC2(N3CCOCC3)CCCCC2)ccc1OCC(C)C`, the “growth rescue (activation)” value is inactive: -2.65%. As to `COc1ccc(N/C(=N/P(=O)(N2CCOCC2)N2CCOCC2)N2CCOCC2)cc1`, the “growth rescue (activation)” value was inactive: -4.15%. The same measure, in the same setting: for `COc1ccc2nc(NP(=O)(c3ccccc3)c3ccccc3)sc2c1` the value was inactive: 2.04%. On the same count and under the same terms, as for `COc1cc(I)ccc1[As](=O)(O)O`, the figure is inactive: -3.95%; as for `O=C(OC1CN2CCC1CC2)C12CC3CC(CC(C3)C1)C2` (centres undefined), inactive: -4.3%.
